From US20090042292A1 (Johns Hopkins, published 2009)

Biological target: T1, PD-1Ig (extracellular domain of mouse PD-1 linked to the Fc portion of mouse IgG2a) (mouse, UniProt Q02242 25-169)
T1 construct: extracellular domain; Produced in stably transfected CHO cells; used coated in the capture ELISA and immobilized on the CM5 chip in SPR; also called mPD-1; not shown: Fc portion of mouse IgG2a
T1 sequence (looked up): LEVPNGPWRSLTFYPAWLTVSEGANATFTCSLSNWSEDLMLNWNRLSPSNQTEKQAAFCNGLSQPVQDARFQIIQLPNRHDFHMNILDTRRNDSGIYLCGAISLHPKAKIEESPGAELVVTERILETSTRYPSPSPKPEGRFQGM
Test: capture ELISA, PD-1Ig coated, COS supernatant, relative to wild type B7-DCIg

- PD-1 binding, ELISA (%): 0.3%
B1: mouse B7-DCIg variant D111S (Fc fusion)
chain: LFTVTAPKEVYTVDVGSSVSLECDFDRRECTELEGIRASLQKVENDTSLQSERATLLEEQLPLGKALFHIPSVQVRDSGQYRCLVICGAAWSYKYLTVKVKASYMRIDTRILEVPGTGEVQLTCQARGYPLAEVSWQNVSVPANTSHIRTPEGLYQVTSVLRLKPQPSRNFSCMFWNAHMKELTSAIIDPLSRMEPKVPRTW
notes: also called B7-DC variant D111; not shown: CH2-CH3 portion of human IgG1
